Measured values from patent publication US20070099244A1.

Chains of the proteins cited; added tags and fusions are not shown. Residues count along the entry.
UniProt P56199, 167-364: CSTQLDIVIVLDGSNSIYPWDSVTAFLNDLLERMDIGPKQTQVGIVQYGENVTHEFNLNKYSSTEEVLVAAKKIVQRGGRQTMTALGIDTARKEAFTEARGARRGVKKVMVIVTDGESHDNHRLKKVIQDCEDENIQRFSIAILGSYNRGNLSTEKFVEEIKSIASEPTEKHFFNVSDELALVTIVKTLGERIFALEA
UniProt P17301, 169-366: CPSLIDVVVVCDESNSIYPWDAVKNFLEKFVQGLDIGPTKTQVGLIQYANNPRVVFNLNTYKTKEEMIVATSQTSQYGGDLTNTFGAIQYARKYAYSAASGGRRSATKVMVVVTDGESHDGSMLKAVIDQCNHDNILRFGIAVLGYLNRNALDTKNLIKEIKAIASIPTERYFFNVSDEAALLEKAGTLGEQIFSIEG

Key:
[1] = biological target: recombinant I domain of integrin α1 subunit (UniProt P56199); assay: competition ELISA; peptide competes with coated human mature type III collagen for 0.5 µM α1I
[2] = biological target: recombinant I domain of integrin α2 subunit (UniProt P17301); assay: competition ELISA; peptide competes with coated human mature type III collagen for 5 µM α2I

IC50 [1]: 2200 nM
IC50 [2]: 12 µM
Substance: synthetic collagen peptide containing GLOGER flanked by three GPO triplets on either side
